Earlier results in patent US20260062376A1, “SQUARAMIDE DERIVATIVES AS CB1 ALLOSTERIC MODULATORS” (RESEARCH TRIANGLE INSTITUTE, priority 2022, published 2026).

What was measured:
[1] = target: T1, CB1R (Homo sapiens (Human), UniProt P21554); settings: cited from earlier work
[2] = target: T1, CB1R; settings: cited from earlier work; remark: listed apart in the source

O=C(Nc1ccc(Cl)cc1)Nc1cccc(-c2cccc(N3CCCC3)n2)c1 [PSNCBAM-1]
Efficacy of agonists in several functional assays [1]: reduces the efficacy of agonists
Binding cooperativity with CP55,940 [2]: positive binding cooperativity
